{
  "source": "paper PMC7367873",
  "about": "“Dissecting the sequence determinants for dephosphorylation by the catalytic subunits of phosphatases PP1 and PP2A” (Nature Communications, 2020)",
  "molecules": {"B1": {"name": "NUP93 (protein, UniProt Q8N1F7 1-819, looked up)", "Nuclear pore complex protein …": "MDTEGFGELLQQAEQLAAETEGISELPHVERNLQEIQQAGERLRSRTLTRTSQETADVKASVLLGSRGLDISHISQRLESLSAATTFEPLEPVKDTDIQGFLKNEKDNALLSAIEESRKRTFGMAEEYHRESMLVEWEQVKQRILHTLLASGEDALDFTQESEPSYISDVGPPGRSSLDNIEMAYARQIYIYNEKIVNGHLQPNLVDLCASVAELDDKSISDMWTMVKQMTDVLLTPATDALKNRSSVEVRMEFVRQALAYLEQSYKNYTLVTVFGNLHQAQLGGVPGTYQLVRSFLNIKLPAPLPGLQDGEVEGHPVWALIYYCMRCGDLLAASQVVNRAQHQLGEFKTWFQEYMNSKDRRLSPATENKLRLHYRRALRNNTDPYKRAVYCIIGRCDVTDNQSEVADKTEDYLWLKLNQVCFDDDGTSSPQDRLTLSQFQKQLLEDYGESHFTVNQQPFLYFQVLFLTAQFEAAVAFLFRMERLRCHAVHVALVLFELKLLLKSSGQSAQLLSHEPGDPPCLRRLNFVRLLMLYTRKFESTDPREALQYFYFLRDEKDSQGENMFLRCVSELVIESREFDMILGKLENDGSRKPGVIDKFTSDTKPIINKVASVAENKGLFEEAAKLYDLAKNADKVLELMNKLLSPVVPQISAPQSNKERLKNMALSIAERYRAQGISANKFVDSTFYLLLDLITFFDEYHSGHIDRAFDIIERLKLVPLNQESVEERVAAFRNFSDEIRHNLSEVLLATMNILFTQFKRLKGTSPSSSSRPQRVIEDRDSQLRSQARTLITFAGMIPYRTSGDTNARLVQMEVLMN"}},
  "key": {"[1]": {"tested_on": "GFP-14-3-3β and its binding proteins", "test": "GFP-14-3-3β co-IP with LC-MS/MS label-free quantification, untreated versus PP1c-treated", "set-up": "species or system human", "conditions": "GFP-14-3-3β co-IP LC-MS/MS; PP1 vs untreated; student's t-test; label-free quantification, 3 replicates each", "method": "(§1) HeLa Kyoto cells expressing transiently transfected pEGFP(C1)-14-3-3β or pEGFP(C1) control plasmid, were incubated with 20 nM Calyculin A (# 9902 S, Cell Signaling Technology) for 12 min. Cells were washed twice on ice with cold PBS and after addition of 500 µL lysis buffer (100 mM NaCl, 10 mM Tris, 0.1% IGEPAL, 1 mM EDTA, 1 mM EGTA, 20 nM Calyculin A, 1x cOmplete Mini protease inhibitor cocktail (Sigma), 1 mM DTT, 1 mM MnCl2) cells were scraped from plates, lysed by 10 pushes through an injection needle (21 G, BD) and the insoluble fraction was pelleted by centrifugation (10 min, 10^4 rcf, 4 °C). Supernatants were then subjected to incubation with 1 µM recombinant phosphatase or buffer for 1 h at 30 °C. […]\n(§2) The samples were analyzed by LC-MS/MS on a Dionex Ultimate 3000 nano-HPLC coupled online to a Fusion Lumos Tribrid mass spectrometer (Thermo Fisher Scientific). […] Full scan MS1 spectra were recorded in the Orbitrap from 360 to 1300 m/z at a resolution of 60k (automatic gain control (AGC) target value of 4e5 charges, maximum injection time (maxIT) of 50 ms). Up to 20 peptide precursors were isolated (isolation window, 1.7 m/z; maximum injection time, 25 ms; and AGC value, 1e5), fragmented by high-energy collision-induced dissociation (HCD) using 30% normalized collision energy (NCE), and analyzed at a resolution of 15k in the Orbitrap. […]"}, "GFP-14-3-3β": {"tested_on": "GFP-14-3-3β", "test": "GFP-14-3-3β co-IP with LC-MS/MS, untreated GFP-14-3-3β versus GFP control (14-3-3 interactome)", "assay_type": "binding, human", "conditions": "GFP-14-3-3β co-IP LC-MS/MS; untreated vs GFP; student's t-test; label-free quantification, 3 replicates each", "method": "as §1, §2"}},
  "data": [
    {"molecule": "B1", "values": [
      {"measurement": "Difference (log2), PP1 vs untreated", "setting": "[1]", "value": -0.4973, "unit": "log2"},
      {"measurement": "Difference (log2), untreated vs GFP", "setting": "GFP-14-3-3β", "value": 0.79, "unit": "log2"}
    ]}
  ]
}
